In patent publication US9266930:

T1: HLA-DR2w2β1 (DRB1*1501) (human)
T1 chain 1: not shown
T1 chain 2: not shown


Legend:
HLA-A*0202 (human) = assay: competition with 125I probe peptide for purified HLA, gel filtration
[1] = biological target: T1, HLA-DR2w2β1 (DRB1*1501) (human)

Row | Binder | IC50 (HLA-A*0202 (human)) | IC50 [1]
1 | FMKAVCVEV (modifications not checked) [1167.16] | 0.307 µM | –
2 | KCNLYADSAWENVKN (modifications not checked) [35.0172 … (Pf SSP2 211)] | – | 18.2 µM
